The values below are quoted from earlier work in PMC3443605 (Journal of medicinal chemistry, 2012).

Molecules are shown by their SMILES.

The conditions of this series: cited from earlier work.

In the case of `O=C1CCc2ccc(OCCCCN3CCN(c4cccc(Cl)c4Cl)CC3)cc2N1` [Compound 1, aripiprazole], the “central nervous system (CNS) penetration” value is “high”.
